{"sequences": {"note": "Chains of the proteins cited; added tags and fusions are not shown. Residues count along the entry.", "UniProt P00747, 97-580 partner limits assumed, species assumed": "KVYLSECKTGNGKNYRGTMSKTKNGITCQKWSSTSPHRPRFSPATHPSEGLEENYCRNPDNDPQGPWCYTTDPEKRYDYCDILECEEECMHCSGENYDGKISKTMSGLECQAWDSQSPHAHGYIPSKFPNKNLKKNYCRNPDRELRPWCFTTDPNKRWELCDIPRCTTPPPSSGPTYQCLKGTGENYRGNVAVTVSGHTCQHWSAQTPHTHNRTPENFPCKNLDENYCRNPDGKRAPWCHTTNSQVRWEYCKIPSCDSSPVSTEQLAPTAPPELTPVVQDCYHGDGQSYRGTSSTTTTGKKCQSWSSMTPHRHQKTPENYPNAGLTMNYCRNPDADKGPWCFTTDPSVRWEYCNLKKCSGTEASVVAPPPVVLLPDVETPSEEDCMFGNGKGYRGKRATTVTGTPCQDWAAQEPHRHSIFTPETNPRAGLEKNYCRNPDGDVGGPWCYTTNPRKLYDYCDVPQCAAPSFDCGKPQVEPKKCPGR", "UniProt P00747, 581-810 limits assumed, species assumed": "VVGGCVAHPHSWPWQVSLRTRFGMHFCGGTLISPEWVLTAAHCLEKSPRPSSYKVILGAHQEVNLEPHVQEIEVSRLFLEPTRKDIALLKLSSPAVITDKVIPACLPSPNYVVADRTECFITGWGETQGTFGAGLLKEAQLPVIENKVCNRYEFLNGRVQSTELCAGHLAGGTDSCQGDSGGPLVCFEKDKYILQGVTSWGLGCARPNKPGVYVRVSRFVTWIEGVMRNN", "UniProt P00742, 41-179 partner limits assumed": "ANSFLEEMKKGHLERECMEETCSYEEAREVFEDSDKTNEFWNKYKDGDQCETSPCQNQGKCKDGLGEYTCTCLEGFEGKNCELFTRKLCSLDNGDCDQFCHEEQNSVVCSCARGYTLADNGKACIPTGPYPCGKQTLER", "UniProt P00742, 235-488 limits assumed": "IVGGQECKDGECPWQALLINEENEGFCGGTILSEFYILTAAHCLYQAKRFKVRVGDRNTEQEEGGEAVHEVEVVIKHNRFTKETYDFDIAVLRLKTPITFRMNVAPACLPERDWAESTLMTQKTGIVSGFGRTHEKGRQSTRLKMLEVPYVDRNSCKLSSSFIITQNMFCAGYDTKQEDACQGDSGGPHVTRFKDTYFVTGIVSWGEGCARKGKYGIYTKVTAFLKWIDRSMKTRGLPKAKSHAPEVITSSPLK"}, "source": "patent US4713369A", "about": "“Oligopeptidylargininol derivatives and their homologs, a process for their preparation, their use and agents containing them” (Behringwerke Aktiengellschaft, priority 1985, dated 1987)", "key": {"plasmin": {"target": "plasmin (Homo sapiens, UniProt P00747)", "experiment": "Inhibitory action against plasmin, analogous procedure (substrate D-norvalylcyclohexylalanylarginyl paranitroanilide)", "type": "biochemical", "settings": "final inhibitor concentration 0.6 mmol/1", "text": "(plasmin substrate: D-norvalylcyclohexylalanylarginyl paranitroanilide (c=3 mmol/l))."}, "F Xa": {"target": "F Xa (Homo sapiens, UniProt P00742)", "experiment": "Inhibitory action against F Xa, analogous procedure (substrate Bzl-Ile-Glu-Gly-Arg pNA)", "type": "biochemical", "settings": "final inhibitor concentration 0.6 mmol/1", "text": "F Xa substrate: Bzl-Ile-Glu-Gly-Arg pNA (50% of the Glu as the methyl ester) (c=3 mmol/liter)"}}}
{"smiles": "N=C(N)NCCCCCC(=O)Oc1ccc(CCC(=O)O)cc1", "note": "[4-carboxyethylphenyl ε-guanidinocaproate, reference compound]", "values": [{"measurement": "Plasmin inhibition", "setting": "plasmin", "value": 83, "unit": "% inhibition"}, {"measurement": "F X a inhibition", "setting": "F Xa", "value": 91, "unit": "% inhibition"}]}
